Test results as given in PMC7917437 (Journal of Medicinal Chemistry, 2021).

System: Caco-2 cells
Assay: In vitro permeability using Caco-2 cells
Type: in vitro ADME, human
Details: high permeability and poor solubility over the physiologic pH range

Question: With `CC[C@H](C)C(=O)N1CCC(NC(=O)Nc2ccc(OC(F)(F)F)c(F)c2)CC1` [EC5026, (S)-1-(3-Fluoro-4-(trifluoromethoxy)phenyl)-3-(1-(2-methylbutanoyl)piperidin-4-yl)urea] as the molecule, how does the “Biopharmaceutics Classification System (BCS) class” value read?
Answer: Its value is “BCS Class 2”.
